pIC50: −log10 of the molar value.
Biological target: T1, Cytochrome P450 11B2, mitochondrial (Homo sapiens, UniProt P19099)
T1 sequence (P19099 whole entry): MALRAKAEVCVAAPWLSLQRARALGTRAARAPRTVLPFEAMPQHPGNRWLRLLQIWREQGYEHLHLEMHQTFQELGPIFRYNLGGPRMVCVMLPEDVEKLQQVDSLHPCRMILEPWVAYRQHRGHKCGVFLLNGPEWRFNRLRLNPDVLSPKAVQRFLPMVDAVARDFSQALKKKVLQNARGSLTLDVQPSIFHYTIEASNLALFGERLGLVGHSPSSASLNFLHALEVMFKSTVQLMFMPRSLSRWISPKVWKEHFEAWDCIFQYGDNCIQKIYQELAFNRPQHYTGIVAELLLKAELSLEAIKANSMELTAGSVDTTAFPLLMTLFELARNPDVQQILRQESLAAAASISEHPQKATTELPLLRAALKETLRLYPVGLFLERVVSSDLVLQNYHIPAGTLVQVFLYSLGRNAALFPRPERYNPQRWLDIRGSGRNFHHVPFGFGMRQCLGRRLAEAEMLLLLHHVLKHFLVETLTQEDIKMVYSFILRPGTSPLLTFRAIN

## CC(C)C(=O)NC1CCCc2c(-c3ccc(C#N)cc3)cncc21 (racemic)
  pIC50: 6.91

— ChEMBL document CHEMBL3621059, “Discovery of 4-Aryl-5,6,7,8-tetrahydroisoquinolines as Potent, Selective, and Orally Active Aldosterone Synthase (CYP11B2) Inhibitors: In Vivo Evaluation in Rodents and Cynomolgus Monkeys” (J Med Chem, 2015)
